According to patent US20030092902A1:
Read-outs that look alike come from different tables or passages of the source.

Chains of the proteins cited; added tags and fusions are not shown. Where a name states a change or a piece, a line headed by the entry shows the natural chain unless it says otherwise. Chains listed by the source or under a name are the forms on record and can include a tag or linker.
UniProt P20382: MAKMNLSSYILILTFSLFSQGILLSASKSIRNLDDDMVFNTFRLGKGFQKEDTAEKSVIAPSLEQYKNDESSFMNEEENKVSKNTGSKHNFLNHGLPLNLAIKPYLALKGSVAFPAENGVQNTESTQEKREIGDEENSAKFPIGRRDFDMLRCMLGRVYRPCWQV
Wild-type Human MCH1R Long Form (human), one chain, as listed by the source limits assumed: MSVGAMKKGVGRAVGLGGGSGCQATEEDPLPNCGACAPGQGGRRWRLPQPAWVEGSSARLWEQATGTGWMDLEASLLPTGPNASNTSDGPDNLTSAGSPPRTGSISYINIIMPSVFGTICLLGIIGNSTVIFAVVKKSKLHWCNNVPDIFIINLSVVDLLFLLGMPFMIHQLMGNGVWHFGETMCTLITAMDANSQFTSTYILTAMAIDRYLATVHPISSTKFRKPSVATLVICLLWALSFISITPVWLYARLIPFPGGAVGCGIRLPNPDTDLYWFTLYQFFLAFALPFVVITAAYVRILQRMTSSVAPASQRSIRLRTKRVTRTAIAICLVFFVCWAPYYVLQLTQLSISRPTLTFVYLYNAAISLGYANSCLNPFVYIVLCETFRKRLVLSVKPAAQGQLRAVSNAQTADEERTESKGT

Assays:
Assay in all cases: cell-based or functional assay
[1] = molecular target: Wild-type Human MCH1R Short Form (human), Q99705
[2] = molecular target: mouse MCH1R-linker-EGFP (mouse)
[3] = molecular target: mouse MCH1R/EGFP direct fusion (mouse)
[4] = molecular target: Wild-type Human MCH1R Short Form (human), Q99705; remark: listed apart in the source
[5] = molecular target: human short form/mouse species chimeric MCH1R-linker-EGFP (human/mouse chimera)
[6] = molecular target: Wild-type Human MCH1R Long Form (human)
[7] = molecular target: Wild-type Human MCH1R Short Form (human), Q99705; remark: listed apart in the source
[8] = molecular target: human long form/mouse species chimeric MCH1R-linker-EGFP (human/mouse chimera)

EC50 (nM), cAMP production, transiently transfected CHO cells [1]: 2.17 nM
EC50 (nM), cAMP production, transiently transfected CHO cells [2]: 3.2 nM
EC50 (nM), cAMP production, transiently transfected CHO cells [3]: 0.819 nM
EC50, cAMP flashplate assay, stable CHO cell clone [4]: 0.114 nM
EC50 (nM), cAMP production, transiently transfected CHO cells [5]: 1.56 nM
EC50 (nM), functional activity in transiently transfected HEK293 cells (aequorin bioluminescence) [5]: 19.5 nM
EC50 (nM), cAMP production, transiently transfected CHO cells [6]: 1.51 nM
EC50 (nM), functional activity in transiently transfected HEK293 cells (aequorin bioluminescence) [6]: 197 nM
EC50 (nM), cAMP production, transiently transfected CHO cells [7]: 1.03 nM
EC50 (nM), functional activity in transiently transfected HEK293 cells (aequorin bioluminescence) [7]: 22.3 nM
EC50, cAMP flashplate assay, stable CHO cell clone [7]: 0.128 nM
EC50 (nM), cAMP production, transiently transfected CHO cells [8]: 11.6 nM
EC50 (nM), functional activity in transiently transfected HEK293 cells (aequorin bioluminescence) [8]: 218 nM
Binder: DFDMLRCMLGRVYRPCWQV (peptide, UniProt P20382 147-165, looked up, modifications not checked) [human melanin-concentrating hormone (MCH), P20382 147-165]
